This note sets out measurements from ChEMBL document CHEMBL1136743, “Design, synthesis, and biological evaluation of C9- and C2-substituted pyrazolo[4,3-e]-1,2,4-triazolo[1,5-c]pyrimidines as new A2A and A3 adenosine receptors antagonists” (J Med Chem, 2003).

pKi: −log10 of the molar value. A value given as a limit tells only on which side of the number the result lay.

As usually defined, the pKi is the negative decadic logarithm of the Ki, by convention in mol/L. Higher therefore signals a low Ki.

For assay [1], the target named is T1, Adenosine receptor A2a (Homo sapiens, UniProt P29274). Description: biochemical.
For assay [2], the target named is T1, Adenosine receptor A2a. The conditions noted are these: cho.

Molecule `Nc1nc2c(cnn2CCc2ccccc2)c2nc(-c3ccc(O)cc3)nn12` showed a pKi at Adenosine receptor A2a [1] below 6.00.

As to `CCNc1c2c(nc(N)n3nc(-c4ccco4)nc23)nn1C`, the pKi at Adenosine receptor A2a [2] was 8.00.
